In this test the test system is Human ES or iPS cells. Description: Marker gene expression during step-wise differentiation of human pluripotent stem cells to somatotrophs. Type of test: cell-based. As to conditions: BMP2 added to FGF8 treatment, FIG. 5. The procedure: Human ES or iPS cells were expanded in E8 media on matrigel.
On day 0, cells were changed to E6 media where BMP4 (5 ng/ml) and SB43152 (10 μM) were added, with daily medium and factors change.
On day 3, BMP4 was removed and the following factors added: FGF8 (100 ng/ml); FGF10 (50 ng/ml); FGF18 (50 ng/ml); Sonic hedgehog (SHH) (100 ng/ml) or SAG (Smoothened Agonist) (100 nM); LDN193189 (250 nM). Media and factors were changed every other day.
Media and factors are changed every other day.
On day 15, the following factors were used: Retinoic acid (1 μM); Thyroid hormone T3 (10 nM); Dexamethasone (1 μM); cyclic AMP (100 μg/ml); DPN (0.1 nM); Growth Hormone Releasing Hormone (GHRH) (1 μM). Media and factors were changed every other day.
On day 29, the cells entered the maturation phase and could be maintained in the same factors for a variable period ranging from 1-4 weeks. […] They could be subjected to FACS sorting for GHRH in order to obtain a pure cell population of somatotrophs. Cells remained on matrigel for the duration of the protocol.
In order to derive GH cells, the strategy was to first differentiate human pluripotent stem cells to pre-placodal ectoderm and anterior pituitary progenitors. The cells were further differentiated to PROP1 lineage, and then to PIT1 lineage. The cells were then terminally differentiated to GH cells. […]

The text below walks through data of patent publication US20250376659A1, “DERIVATION OF SOMATOTROPHS FROM STEM CELLS AND USES THEREOF” (MEMORIAL SLOAN-KETTERING CANCER CENTER, priority 2017, published 2025).

B1: BMP2: BMP molecule, ventralizing agent (protein, UniProt P12643 283-396, looked up)
Bone morphogenetic protein 2: QAKHKQRKRLKSSCKRHPLYVDFSDVGWNDWIVAPPGYHAFYCHGECPFPLADHLNSTNHAIVQTLVNSVNSKIPKACCVPTELSAISMLYLDENEKVVLKNYQDMVVEGCGCR
Take B1: the “effects of FGF8 on PROP1, PIT1 and POMC expression” value is reported as “neutralized”.
